Shown are actives, neighbours in structure and some others; about 1% of the full set was active somewhere.
Cneo AK release = Cryptococcus neoformans lysis via adenylate kinase release | lysis activity, % at 15 µM | C. neoformans lysis, adenylate kinase release luminescence, 4 h; normalised: neutral wells 0, clomiphene wells 100 | 360,000 compounds, 0.2% hits;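 active = mean lysis activity across replicates of at least 80%, whatever share of replicates individually reach that level; inactive = mean lysis activity below 80%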
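read-out = cell lysis signal | test system = log-phase Cryptococcus neoformans yeast cells | input = cells at 5 × 10^6 per mL | medium = fresh YPD growth medium | signal = luminescent adenylate kinase detection reagent | timing = 4 h at 37 °C static, read 1 h later | dosing = single dose | controls = Clomiphene as positive lysis control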
Rtt109 HAT inh = inhibitors of Candida albicans Rtt109/Vps75 histone acetyltransferase | AID 540336 | inhibition, % at 34.9 µM | Q5AAJ8 | 330,000 compounds, 0.16% hits | purified Rtt109/Vps75, ThioGlo CoA-SH fluorescence, 4 h;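 active = inhibition of at least 50% in every replicate; inconclusive = best replicate reaches 50% inhibition but some replicates fall short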
Yeast UUG start = modulators of start codon recognition fidelity in yeast; S. cerevisiae UUG-firefly luciferase reporter, luminescence/redox ratio; activity score, % at 18.7 µM; hit rate 0.13% among 350,000; AID 602363;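 active = replicate mean at a twofold rise or more, about +100% in these data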;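 note: firefly luciferase made from a UUG start codon reports start codon fidelity; reporter light over untreated wells divided by growth signal over untreated wells; some hits fall short of that in this replicate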
Statin myotox sup = suppression of simvastatin myotoxicity; C2C12 myotubes + simvastatin, ATP luminescence, 48 h; scaled: DMSO 0, geranylgeraniol control 100; rescue of ATP level, % at 7.49 µM; 330,000 compounds, 0.78% hits; AID 602340;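 active = mean ATP rescue above about 67%, or every replicate alone reaching that limit, limit read from the data, passing the limit was not always enough; inconclusive = no clear call, values can overlap the other calls; inactive = mean under the limit and some replicate under it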;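 also: myotubes were challenged with 10 µM simvastatin during compound exposure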
CDK5 inh = inhibitors of human CDK5/p35 kinase | inhibition, % at 10 µM | Q00535+Q15078 | 330,000 compounds, 0.01% hits | Recombinant CDK5/p35, ADP-Glo luminescence, 60 min;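 active = highest replicate inhibition of at least 50% and at least 75% of replicates reaching 50%; inconclusive = only one of the two criteria met; inactive = both criteria failed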;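 also: plate controls were DMSO neutral control for no effect and GW8510 at 10 µM for full effect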
Numbers without * were called inactive; ? = inconclusive; / = no result given.

Every second line gives: Cneo AK release	Rtt109 HAT inh	Yeast UUG start	Statin myotox sup	CDK5 inh
- COCCn1nnnc1C(c1ccccc1)N1CCN(Cc2ccc3c(c2)OCO3)CC1 (configuration not stated)
→ 2	-12	7	108*	-2
- COCC(=O)N(C)C[C@H]1Oc2cc(-c3cccnc3)ccc2S(=O)(=O)N([C@H](C)CO)C[C@@H]1C
→ 43	/	8	15	/
- CCCCCCCCCCCCCCCCn1cc[n+](C)c1
→ /	95*	/	/	4
- COc1cccc(S(=O)(=O)NCc2ccc(C(=O)Nc3ccc(C)cc3)cc2)c1
→ -6	-2	-20	95*	-1
- C[C@H](CO)N1C[C@H](C)[C@H](CN(C)CC2CCCCC2)Oc2c(NS(=O)(=O)c3ccc(Cl)cc3)cccc2C1=O
→ 1	/	18	-13	/
- O=C(NC1CCCC1)C(c1ccsc1)N(Cc1ccco1)C(=O)Cc1cccs1 (configuration not stated)
→ -2	-2	4	118*	1
- COc1ccc(-c2cnc3c(c2)C(=O)N([C@H](C)CO)C[C@H](C)[C@@H](CN(C)C)O3)cc1
→ 0	/	-3	5	/
- CS(=O)(=O)N(CCc1ccccc1)CC(=O)N1CCCCC1
→ 0	5	-8	/	-2
- CS(=O)(=O)N(CCc1ccccc1)CC(=O)N1CCc2ccccc2C1
→ -1	-3	-1	111*	-1
- CS(=O)(=O)N(CCc1ccccc1)CC(N)=O
→ 1	5	-16	102*	1
- Cc1ccc2nc(-c3ccco3)c(Cc3ccccc3)n2c1
→ 0	/	-2	-12	/
- COC(=O)c1ccc2nc(-c3ccco3)c(Cc3ccccc3)n2c1
→ 0	/	7	83*	/
- COc1ccc(CN(C)C[C@H]2Oc3c(NC(=O)c4cnccn4)cccc3C(=O)N([C@@H](C)CO)C[C@@H]2C)cc1
→ -1	/	-16	18	/
- COc1ccc(C2NC(=S)NC3=C2CCc2cc(OC)ccc23)cc1 (configuration not stated)
→ 3	-1	-22	90*	2
- CCOC(=O)Cc1nnc(NC(=O)COc2ccc(OC)cc2)s1
→ -1	2	-20	130*	-1

Marked active in Rtt109 HAT inh (from the list above):
structure | Rtt109 HAT inh | Yeast UUG start | CDK5 inh
CCCCCCCCCCCCCCCCn1cc[n+](C)c1 | 95* | / | 4

New compounds follow.
Every second line gives: Cneo AK release	Rtt109 HAT inh	Yeast UUG start	Statin myotox sup	CDK5 inh
- CCCNC(=O)[C@@H]1[C@@H](CO)[C@@H]2Cn3c(ccc(-c4ccccc4OC)c3=O)[C@@H]2N1CC
→ 1	/	/	15	/
- Cc1ccc(-c2ccc3c(c2)O[C@@H](CN(C)Cc2ccc(F)cc2)[C@@H](C)CN([C@@H](C)CO)S3(=O)=O)cc1
→ -8	/	21	-104	/
- Cc1ccc(-c2ccc3c(c2)O[C@H](CN(C)Cc2ccc(F)cc2)[C@H](C)CN([C@H](C)CO)S3(=O)=O)cc1
→ 90*	/	37	-21	/
- C[C@@H]1CN([C@@H](C)CO)S(=O)(=O)c2ccc(C3=CCCC3)cc2O[C@@H]1CN(C)Cc1ccccc1F
→ 90*	/	21	-105	/
- C[C@H]1CN([C@@H](C)CO)S(=O)(=O)c2ccc(C3=CCCC3)cc2O[C@H]1CN(C)Cc1ccccc1F
→ -3	/	2	-30	/
- C[C@@H]1CCCCO[C@H](CN(C)Cc2ccc(C(=O)O)cc2)[C@H](C)CN([C@H](C)CO)C(=O)c2cc(NS(=O)(=O)c3cn(C)cn3)ccc2O1
→ -3	/	7	/	/
- C[C@@H]1CN([C@@H](C)CO)C(=O)c2cccc(NC(=O)C3CCCCC3)c2O[C@H]1CN(C)C(=O)Nc1ccc(F)cc1
→ 2	/	9	21	/
- [N-]=[N+]=CC(=O)c1ccnc(C(=O)C=[N+]=[N-])c1
→ -1	-8	-26	94*	1
- CCn1c(C)c(CS(=O)(=O)c2ccccc2)[nH]c1=O
→ /	119*	/	/	0
- O=c1[nH]c(CS(=O)(=O)c2ccccc2)nc2ccccc12
→ 0	-6	5	0	0
- Cc1cc(/C=N/n2cnnc2)c(C)n1-c1ccc(Cl)cc1Cl
→ -2	-6	-8	97*	-1
- Cc1cc(/C=N/n2cnnc2)c(C)n1-c1ccc(Cl)cc1
→ /	7	/	/	-1
- CC(C)NC(=O)N1C[C@H]2[C@@H](c3ccccc31)[C@H](CO)N2C(=O)c1ccccc1
→ 4	/	-4	-2	/
- O=C(c1cccc(F)c1)N1CCCCN2[C@@H](CO)[C@H](c3ccc(-c4ccncc4)cc3)[C@@H]2C1
→ 112*	/	14	/	/
- C/C=C/c1ccc([C@@H]2[C@H]3CN(C(=O)Nc4ccc(OC)cc4)CCCCN3[C@H]2CO)cc1
→ 114*	/	40	/	/
- O=C(Nc1ccccc1)N1CCCCN2[C@@H](CO)[C@@H](c3ccc(C#CC4CC4)cc3)[C@@H]2C1
→ 4	/	13	/	/
- O=C(c1cccc(F)c1)N1CCCCN2[C@H](CO)[C@@H](c3ccc(-c4ccncc4)cc3)[C@H]2C1
→ -1	/	0	/	/
- COc1ccc(C#Cc2ccc([C@H]3[C@H]4CN(C(=O)c5ccncc5)CCCCN4[C@H]3CO)cc2)cc1
→ -1	/	7	98*	/
- O=C(Nc1ccccc1)N1CCCCN2[C@H](C1)[C@H](c1ccc(C#CC3CC3)cc1)[C@@H]2CO
→ 108*	/	49	/	/
- COC(=O)[C@H]1[C@H](CO)[C@H]2Cn3c(ccc(C4=CCCCC4)c3=O)[C@H]2N1C(=O)C1CCCC1
→ -1	/	/	8	/
- CO/N=C/c1ccc(Sc2ccccc2)c([N+](=O)[O-])c1
→ -2	-13	-7	2	4
- CO/N=C/c1ccc(Sc2ccccc2N)c([N+](=O)[O-])c1
→ 2	4	-12	128*	-1
- O=[N+]([O-])c1cc(/C=N/O)ccc1Sc1ccccc1
→ -1	?	-4	171*	-1
- CCCN1C[C@H](C)[C@H](OC)CN(C)C(=O)c2cc(NC(=O)Nc3c(C)noc3C)ccc2OC[C@@H]1C
→ -2	/	-10	-9	/
- O=c1[nH]c2ccccc2c(O)c1O
→ 2	176*	21	10	6
- O=c1[nH]c2ccccc2c(O)c1-[n+]1ccccc1
→ -1	-1	-8	/	-2
- O=C(Cc1ccc2cccnc2c1)c1ccc(O)cc1O
→ -11	60*	-16	-10	0
- Cc1ccc(-n2ccc(=O)c(-c3ccnc(SCc4cccc(Cl)c4)n3)n2)cc1
→ 0	-1	-17	84*	1
- C[C@H]1CN([C@@H](C)CO)C(=O)Cc2cc(N(C)C)ccc2O[C@@H]1CN(C)C
→ 3	/	-3	11	/
- Nc1nc2ccccc2[nH]1
→ -1	0	-22	7	1
- Nc1ccccc1Sc1nc2ccccc2[nH]1
→ /	101*	/	/	1
- CC1CCc2c(sc(NC(=O)c3ccccc3C(=O)O)c2C#N)C1 (configuration not stated)
→ /	-3	/	/	1
- CC(=O)Nc1sc2c(c1C#N)CCC(C)C2 (configuration not stated)
→ 0	3	-8	111*	0
- CO[C@@H]1CN(C)C(=O)c2ccc(NS(C)(=O)=O)cc2OC[C@@H](C)N(CCC(F)(F)F)C[C@H]1C
→ -61	/	-6	-6	/
- Cc1cc2c(N=O)c(NO)ccc2[nH]1
→ 1	-1	-13	80*	4
- COc1ccc(S(=O)(=O)N(C)C[C@H]2Oc3c(NS(C)(=O)=O)cccc3C(=O)N([C@H](C)CO)C[C@H]2C)cc1
→ 2	/	7	/	/

Single records, from the list above:
CO[C@@H]1CN(C)C(=O)c2ccc(NS(C)(=O)=O)cc2OC[C@@H](C)N(CCC(F)(F)F)C[C@H]1C reads Cneo AK release = -61; Rtt109 HAT inh = /; Yeast UUG start = -6; Statin myotox sup = -6; CDK5 inh = /
CC1CCc2c(sc(NC(=O)c3ccccc3C(=O)O)c2C#N)C1 (configuration not stated) reads Cneo AK release = /; Rtt109 HAT inh = -3; Yeast UUG start = /; Statin myotox sup = /; CDK5 inh = 1
